Columns and labels:
[1] = target: alpha1B adrenergic receptor (rat liver) (Rattus norvegicus, UniProt P15823); experiment: [3H]-prazosin binding in rat liver; conditions: read-out: Inhibition of the binding of [3H]-prazosin IC50, alpha1B subtype, tested form: HCl
[2] = target: alpha1A adrenergic receptor (rat GSM) (Rattus norvegicus, UniProt P43140); experiment: [3H]-prazosin binding in rat submaxillary glands (GSM); conditions: read-out: Inhibition of the binding of [3H]-prazosin IC50, alpha1A subtype, pH 7.4, 45 min, 25° C., tested form: HCl
[3] = target: alpha1A + alpha1C adrenergic receptor (human prostate); experiment: [3H]-prazosin binding in human prostate; conditions: read-out: Inhibition of the binding of [3H]-prazosin IC50, alpha1A + alpha1C subtype, pH 7.5, 30 min, 25° C., tested form: HCl
[4] = target: 5-HT2 receptors (isolated rabbit aorta) (Oryctolagus cuniculus, UniProt G1SYA7); experiment: Antagonism of serotonin-induced contraction of isolated rabbit aorta; conditions: 37° C., compound 10 min before agonist, limits (p < 0.05), tested form: HCl
[5] = system: anaesthetised normotensive rat; experiment: Hypotensive activity in the anaesthetised normotensive rat (IV); format: in vivo; conditions: IV bolus, tested form: HCl

By UniProt entry, the sequences of proteins in these tests, tags left out. Residues count along the entry.
UniProt P15823, whole entry: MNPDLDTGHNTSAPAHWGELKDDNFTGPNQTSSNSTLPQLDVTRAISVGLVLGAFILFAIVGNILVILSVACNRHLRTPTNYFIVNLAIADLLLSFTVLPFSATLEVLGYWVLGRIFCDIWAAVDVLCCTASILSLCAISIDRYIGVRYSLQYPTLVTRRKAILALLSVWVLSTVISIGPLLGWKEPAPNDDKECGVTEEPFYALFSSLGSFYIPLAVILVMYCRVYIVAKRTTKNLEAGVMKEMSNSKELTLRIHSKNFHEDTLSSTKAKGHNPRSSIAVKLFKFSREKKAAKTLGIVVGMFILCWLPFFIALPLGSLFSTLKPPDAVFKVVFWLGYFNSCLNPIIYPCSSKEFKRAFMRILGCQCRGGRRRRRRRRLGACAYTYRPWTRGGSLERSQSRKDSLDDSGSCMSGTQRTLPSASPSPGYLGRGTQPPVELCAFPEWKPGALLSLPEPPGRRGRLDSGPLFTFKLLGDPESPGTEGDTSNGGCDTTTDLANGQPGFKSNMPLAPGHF
UniProt P43140, whole entry: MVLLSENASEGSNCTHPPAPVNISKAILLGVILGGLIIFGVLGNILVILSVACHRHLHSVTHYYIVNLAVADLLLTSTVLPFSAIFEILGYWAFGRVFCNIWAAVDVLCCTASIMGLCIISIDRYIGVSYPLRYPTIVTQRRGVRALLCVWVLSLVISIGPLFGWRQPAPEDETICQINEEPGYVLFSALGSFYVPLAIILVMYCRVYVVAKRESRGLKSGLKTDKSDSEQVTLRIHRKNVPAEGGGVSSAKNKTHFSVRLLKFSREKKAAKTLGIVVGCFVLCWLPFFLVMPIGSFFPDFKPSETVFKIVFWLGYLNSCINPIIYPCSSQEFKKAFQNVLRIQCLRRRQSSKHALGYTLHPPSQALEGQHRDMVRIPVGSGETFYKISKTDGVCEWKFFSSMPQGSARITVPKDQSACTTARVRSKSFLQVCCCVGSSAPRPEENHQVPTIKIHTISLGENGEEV
UniProt G1SYA7, 1-469: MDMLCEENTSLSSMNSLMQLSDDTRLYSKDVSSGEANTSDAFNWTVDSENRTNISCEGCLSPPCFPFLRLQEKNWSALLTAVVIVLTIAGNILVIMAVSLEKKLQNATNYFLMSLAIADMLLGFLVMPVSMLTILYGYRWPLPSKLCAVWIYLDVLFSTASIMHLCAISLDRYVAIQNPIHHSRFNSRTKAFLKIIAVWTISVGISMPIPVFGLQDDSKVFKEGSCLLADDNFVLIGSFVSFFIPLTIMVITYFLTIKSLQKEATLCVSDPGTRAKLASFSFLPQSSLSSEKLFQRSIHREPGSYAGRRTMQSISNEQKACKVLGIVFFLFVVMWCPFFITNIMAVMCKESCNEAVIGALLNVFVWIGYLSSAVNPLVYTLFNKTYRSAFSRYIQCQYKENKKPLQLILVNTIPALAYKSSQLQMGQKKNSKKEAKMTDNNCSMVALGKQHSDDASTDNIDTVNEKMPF

- IC50 [1]: 62 nM
- IC50 [2]: 88 nM
- IC50 [3]: > 100 nM
- Inhibitory effect (IC50) on the contraction caused by 0.3 μM serotonin [4]: > 50 µg/mL
Structure (SMILES): COc1cc2nc(N3CCC(c4cccc5ccccc45)CC3)nc(N)c2cc1OC
- Reduction in mean arterial pressure ED30 ([5]; interval 0-30 min): 1.00 mg/kg
- Reduction in mean arterial pressure ED30 ([5]; interval 30-60 min): 1.83 mg/kg

Source: patent publication US5985885A, “Quinazoline-4-amino-2-(piperidine-1-yl-4-substituted) derivatives having antihypertensive activity, a method for their preparation and their pharmaceutical use” (priority 1996, dated 1999)
